Values quoted from earlier work in article PMC4717123, “The cytochrome P450 CYP6P4 is responsible for the high pyrethroid resistance in knockdown resistance-free Anopheles arabiensis” (Insect Biochemistry and Molecular Biology, 2016).

Test system: An. arabiensis populations from Ndjamena
Design: method as in Witzig et al., 2013
Conditions: Chad, 2009, ref Witzig et al., 2013; cited from earlier work

Structure (SMILES): CC1(C)C(C=C(Cl)Cl)C1C(=O)OCc1cccc(Oc2ccccc2)c1 (stereo not shown) [permethrin]
- resistance/susceptibility status: resistant
